The results in this text go back to ChEMBL document CHEMBL3763047, “Flavonoid derivatives as selective ABCC1 modulators: Synthesis and functional characterization” (Eur J Med Chem, 2016).

The chains behind the UniProt entries cited, without tags or fusion partners. Where a name states a change or a piece, a line headed by the entry shows the natural chain unless it says otherwise.
UniProt Q9UNQ0: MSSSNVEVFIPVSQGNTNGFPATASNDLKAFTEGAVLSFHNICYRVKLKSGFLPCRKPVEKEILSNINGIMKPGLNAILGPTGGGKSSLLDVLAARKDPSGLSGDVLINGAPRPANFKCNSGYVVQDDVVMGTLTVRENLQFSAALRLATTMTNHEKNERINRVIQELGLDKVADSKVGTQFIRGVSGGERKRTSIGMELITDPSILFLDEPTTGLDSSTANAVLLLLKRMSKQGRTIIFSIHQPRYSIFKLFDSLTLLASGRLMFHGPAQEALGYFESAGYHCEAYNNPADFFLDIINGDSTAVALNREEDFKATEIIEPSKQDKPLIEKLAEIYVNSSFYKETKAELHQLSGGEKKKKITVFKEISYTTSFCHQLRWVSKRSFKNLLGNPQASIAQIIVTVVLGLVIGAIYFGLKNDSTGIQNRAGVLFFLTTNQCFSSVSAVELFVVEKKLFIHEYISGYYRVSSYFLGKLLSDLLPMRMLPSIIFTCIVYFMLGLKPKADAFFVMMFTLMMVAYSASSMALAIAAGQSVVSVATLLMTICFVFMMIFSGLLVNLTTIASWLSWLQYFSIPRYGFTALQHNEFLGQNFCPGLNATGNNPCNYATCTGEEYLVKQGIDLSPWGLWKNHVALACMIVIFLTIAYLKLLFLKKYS

The target of this assay is Broad substrate specificity ATP-binding cassette transporter ABCG2 (Homo sapiens, UniProt Q9UNQ0). Nature of the assay: Inhibition of ABCG2 in human MCF7/Topo cells by Hoechst 33342 assay. Type of assay: cell-based.

Structures are written as SMILES.

Consider `COc1ccc(CCNC(=O)c2cc(=O)c3c(OCc4ccccc4)cccc3o2)cc1OC`, for which the IC50 is 1.8 µM.

Broadly, the IC50 is the midpoint of a concentration-inhibition curve. Low readings indicate greater potency in that assay, high ones weaker potency in that assay.
